The target in one assay is Aromatase (Homo sapiens, UniProt P11511).
The target of assay [1] is T1, Cytochrome P450 11B2, mitochondrial (Homo sapiens, UniProt P19099).
T1 sequence (P19099 whole entry): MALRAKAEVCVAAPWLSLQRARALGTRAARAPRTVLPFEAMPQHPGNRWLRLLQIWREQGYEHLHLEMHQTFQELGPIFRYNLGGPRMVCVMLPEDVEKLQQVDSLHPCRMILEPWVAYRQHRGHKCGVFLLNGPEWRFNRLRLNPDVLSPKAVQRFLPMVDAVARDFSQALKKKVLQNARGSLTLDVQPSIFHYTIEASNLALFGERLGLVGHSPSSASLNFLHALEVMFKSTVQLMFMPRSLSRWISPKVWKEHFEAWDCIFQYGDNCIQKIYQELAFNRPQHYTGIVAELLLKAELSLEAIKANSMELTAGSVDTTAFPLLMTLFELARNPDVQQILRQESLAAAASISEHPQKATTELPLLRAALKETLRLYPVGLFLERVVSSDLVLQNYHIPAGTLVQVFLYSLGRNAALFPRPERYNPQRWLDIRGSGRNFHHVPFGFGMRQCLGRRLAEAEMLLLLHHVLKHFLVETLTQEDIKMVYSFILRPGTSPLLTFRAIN
Nature of the assay: In vitro inhibition of [14C]deoxycorticosterone binding to human cytochrome P450 11B2 expressed in hamster V79 MZh cells. It counts as cell-based.

Sequences of proteins named here, by UniProt entry; tags and fusion partners are left off. A change or cut given only in a name is not applied to a line headed by its entry.
UniProt P11511: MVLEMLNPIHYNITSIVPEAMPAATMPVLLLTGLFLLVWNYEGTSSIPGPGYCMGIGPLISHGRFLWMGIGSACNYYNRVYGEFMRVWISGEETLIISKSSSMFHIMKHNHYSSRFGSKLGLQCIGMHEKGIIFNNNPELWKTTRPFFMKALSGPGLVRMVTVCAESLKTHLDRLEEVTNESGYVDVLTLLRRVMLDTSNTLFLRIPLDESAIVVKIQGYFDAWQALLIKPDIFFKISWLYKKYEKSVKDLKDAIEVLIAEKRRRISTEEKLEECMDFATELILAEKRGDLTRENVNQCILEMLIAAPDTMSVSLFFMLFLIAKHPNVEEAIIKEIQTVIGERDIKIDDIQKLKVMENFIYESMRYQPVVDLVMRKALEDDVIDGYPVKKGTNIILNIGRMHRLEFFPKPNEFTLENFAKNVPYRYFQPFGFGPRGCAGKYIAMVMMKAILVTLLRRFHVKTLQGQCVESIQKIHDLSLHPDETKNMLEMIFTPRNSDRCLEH

In assay [2] the target is T2, Cytochrome P450 11B1, mitochondrial (Homo sapiens, UniProt P15538).
T2 sequence (P15538 whole entry): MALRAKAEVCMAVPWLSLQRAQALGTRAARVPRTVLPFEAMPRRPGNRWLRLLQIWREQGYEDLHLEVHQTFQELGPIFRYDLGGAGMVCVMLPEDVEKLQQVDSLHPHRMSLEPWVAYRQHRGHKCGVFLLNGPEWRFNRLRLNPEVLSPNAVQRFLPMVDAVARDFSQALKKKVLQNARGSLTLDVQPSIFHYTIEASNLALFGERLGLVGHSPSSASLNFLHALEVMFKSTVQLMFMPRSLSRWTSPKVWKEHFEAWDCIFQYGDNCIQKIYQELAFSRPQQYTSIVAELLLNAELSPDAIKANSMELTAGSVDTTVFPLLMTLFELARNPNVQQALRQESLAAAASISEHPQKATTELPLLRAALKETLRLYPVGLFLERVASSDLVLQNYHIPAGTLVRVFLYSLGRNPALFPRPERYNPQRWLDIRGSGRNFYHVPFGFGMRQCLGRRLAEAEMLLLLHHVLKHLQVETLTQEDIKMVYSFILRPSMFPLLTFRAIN
Nature of the assay: In vitro inhibition of [14C]deoxycorticosterone binding to human cytochrome P450 11B1 expressed in hamster V79 MZh cells. In kind it is cell-based.

With `Brc1ccc2c(c1)CC/C2=C/c1c[nH]cn1`, at Aromatase, the concentration for half-maximal inhibition (IC50) (in general, the point on the concentration scale where inhibition reaches its midpoint) amounted to 100 nM. For `C(=C1\CCCc2ccccc21)/c1c[nH]cn1`, the IC50 in assay [1] is 9.6 nM; in assay [2] it was 3.3 nM. Molecule `Fc1ccc2c(c1)CC/C2=C/c1c[nH]cn1` displayed an IC50 in assay [2] of 11.2 nM.

In the case of `Clc1ccc2c(c1)CC/C2=C/c1c[nH]cn1`, the concentration for half-maximal inhibition (IC50) in assay [1] was 3.7 nM; in assay [2], 19.5 nM.

Source of the values: ChEMBL document CHEMBL1144350, “Synthesis and evaluation of imidazolylmethylenetetrahydronaphthalenes and imidazolylmethyleneindanes: potent inhibitors of aldosterone synthase” (J Med Chem, 2005).
